Laboratory results reported in US20250002529A1, “NOVEL […] COMPOUNDS, PREPARATION METHODS, COMPOSITIONS AND APPLICATIONS” (Guangzhou Anobri Pharmaceutical Co. Ltd., priority 2021, published 2025).

Parameters: species or system Male Wistar-Hannover rats
Conditions: rat, in vivo, 10 mg/kg

With PF-07321332 [reference compound] the “AUC0~∞” value was 1982 ng·h/mL, the Cmax was 1445 ng/mL and the T1/2 was 2.9 h. It also gave a Tmax of 2 h.
